# Earlier results, collected in patent US20260240837A1, “Compositions Reducing the Expression or Activity of C1 GALT1 for Treating Ewing Sarcoma” (University of Massachusetts Medical School, priority 2023, published 2026).
# Protein sequences, listed by entry. Tags and fused reporters are not part of them. Residues count along the entry.
# UniProt P08684, 2-503 limits assumed: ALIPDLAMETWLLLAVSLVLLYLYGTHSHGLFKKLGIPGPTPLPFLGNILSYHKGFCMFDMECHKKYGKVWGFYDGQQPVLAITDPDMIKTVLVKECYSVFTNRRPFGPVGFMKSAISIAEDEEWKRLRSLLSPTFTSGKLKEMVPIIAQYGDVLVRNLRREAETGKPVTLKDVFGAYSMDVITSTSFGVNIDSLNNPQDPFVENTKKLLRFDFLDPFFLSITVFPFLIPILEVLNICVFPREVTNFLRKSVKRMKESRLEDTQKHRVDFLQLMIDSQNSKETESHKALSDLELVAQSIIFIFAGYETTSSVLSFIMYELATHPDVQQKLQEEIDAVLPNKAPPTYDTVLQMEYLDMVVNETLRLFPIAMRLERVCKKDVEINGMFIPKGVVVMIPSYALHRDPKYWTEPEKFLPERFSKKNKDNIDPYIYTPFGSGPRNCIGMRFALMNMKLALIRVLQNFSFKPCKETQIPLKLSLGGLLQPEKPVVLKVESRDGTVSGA
# Molecular target: fungal cytochrome P450 CYP3A4 (Homo sapiens, UniProt P08684)
# Conditions: previous studies (Isoherranen et al., 2004); cited from earlier work
structure (smiles),measurement,value
"CCC(C)n1ncn(-c2ccc(N3CCN(c4ccc(OCC5COC(Cn6cncn6)(c6ccc(Cl)cc6Cl)O5)cc4)CC3)cc2)c1=O (stereo not shown) [ITZ, itraconazole]",inhibition of CYP3A4,potently inhibits
